Experimental data as given in ChEMBL document CHEMBL1152919, “Chloro-oxime derivatives as novel small molecule chaperone amplifiers” (Bioorg Med Chem Lett, 2009).

Target: T1, Heat shock factor protein 1 (Homo sapiens) (UniProt Q00613)
T1 sequence (whole entry): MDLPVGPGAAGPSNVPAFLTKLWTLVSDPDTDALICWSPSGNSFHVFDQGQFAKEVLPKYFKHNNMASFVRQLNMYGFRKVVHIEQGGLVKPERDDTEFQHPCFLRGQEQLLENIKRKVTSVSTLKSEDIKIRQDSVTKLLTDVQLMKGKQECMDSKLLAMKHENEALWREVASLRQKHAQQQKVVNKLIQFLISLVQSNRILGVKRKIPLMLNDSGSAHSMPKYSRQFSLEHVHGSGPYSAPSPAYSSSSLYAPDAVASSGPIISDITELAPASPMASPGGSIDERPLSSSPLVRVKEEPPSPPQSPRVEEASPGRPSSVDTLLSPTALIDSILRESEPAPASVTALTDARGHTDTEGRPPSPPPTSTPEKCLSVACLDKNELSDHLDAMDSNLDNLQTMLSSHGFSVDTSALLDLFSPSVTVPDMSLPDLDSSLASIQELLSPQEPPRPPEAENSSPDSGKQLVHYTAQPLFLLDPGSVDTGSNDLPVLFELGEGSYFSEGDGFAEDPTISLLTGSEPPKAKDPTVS
Assay: Transcriptional activation of HSF1 in human HeLa cells assessed as granule formation treated for 3 hrs at 37 degC without heat shock by immunocytochemical staining

Row | Compound | Activity
1 | OC(CO/N=C(\Cl)c1nc2ccccc2o1)CN1CCOCC1 (stereo unspecified) | inactive
2 | O=C(NOCC(O)CN1CCCCC1)c1nc2ccccc2o1 (stereo unspecified) | inactive
3 | Cl/C(=N\OCCCN1CCCCC1)c1nc2ccccc2o1 | inactive
4 | CS(=O)(=O)NCC(O)CO/N=C(\Cl)c1nc2ccccc2o1 (stereo unspecified) | inactive
5 | CC(=O)NCC(O)CO/N=C(\Cl)c1nc2ccccc2o1 (stereo unspecified) | inactive

The next lines start with the values.

Row | Activity | Compound
6 | inactive | CO/C(=N\OCC(O)CN1CCCCC1)c1nc2ccccc2o1 (stereo unspecified)
7 | inactive | C/C(=N\OCC(O)CN1CCCCC1)c1nc2ccccc2o1 (stereo unspecified)
8 | inactive | OC(CO/N=C(/c1nc2ccccc2o1)C(F)(F)F)CN1CCCCC1 (stereo unspecified)
9 | inactive | OC(CO/N=C/c1nc2ccccc2o1)CN1CCCCC1 (stereo unspecified)
10 | inactive | OC(CO/N=C(\Cl)c1cc2ccccc2o1)CN1CCCCC1 (stereo unspecified)
11 | inactive | OC(CO/N=C(\Cl)c1cc2ccccc2s1)CN1CCCCC1 (stereo unspecified)

The source made the active and inactive calls. No cut-off for these calls is given here.
